## Ab-91 heavy chain CDR variants: yeast mating affinities

The measurements come from Engelhart et al. 2022 (doi:10.1038/s41597-022-01779-4) through the FLAb antibody collection.

Target: peptide PDVDLGDISGINAS, taken from heptad repeat 2 (HR2) of SARS-CoV-2 spike.

The variants keep the light chain, the linker and the frameworks of Ab-91 (scFv order VL, a (GGGGS)3 linker, VH).
VL: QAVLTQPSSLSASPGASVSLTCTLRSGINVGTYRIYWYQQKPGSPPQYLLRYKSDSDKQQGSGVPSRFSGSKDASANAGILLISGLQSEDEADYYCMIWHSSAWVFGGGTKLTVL
VH: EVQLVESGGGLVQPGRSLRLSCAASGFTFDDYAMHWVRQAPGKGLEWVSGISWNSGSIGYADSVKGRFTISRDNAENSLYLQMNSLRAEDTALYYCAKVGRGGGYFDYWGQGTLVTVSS

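The starting antibody came from a phage panning campaign against this peptide. In library AAYL51, one, two or three CDR residues were substituted; doubles and triples were drawn at random. In AlphaSeq, yeast of one mating type display the scFv and yeast of the other type display the target. The frequency of each diploid, read from paired DNA barcodes, reflects how well the two displayed proteins bind. Read counts were normalised to the haploid input and turned into Kd by a linear fit to BCL2-family pairs of known affinity, for each replicate. The assay was run in three technical replicates.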

Positions count from residue 1 of the parent VH; G26Y puts Y in place of G. Affinities are written as log10 Kd with Kd in nM; a lower number is a better binder. Averages over replicates are reported, and they cover detected replicates only. "no signal" marks a missing value. The strain was present, yet no cells mated with the target were sequenced in any replicate, which points to weak or no binding. Parent in this assay: reference entry 1.86, copy in this library 0.88.

| mean, log10 nM | detected | changes |
|---|---|---|
| no signal | 0/3 | G26Y/Y60F/V99P |
| 4.53 | 2/3 | D30S/S63E/G103A |
| no signal | 0/3 | F29R/N54D/R101T |
| 5.97 | 1/3 | G26C/R101H/G103Q |
| no signal | 0/3 | F29H/W53S/D62R |
| no signal | 0/3 | S52I/V64K/Y108S |
| 4.47 | 3/3 | M34H/I58V/G100E |
| 3.56 | 3/3 | D31K/G56I/Y60S |
| 4.66 | 2/3 | G56W/V64Y/G103D |
| 0.95 | 3/3 | W53P/K65G/G104F |
| 4.40 | 1/3 | F27L/A61S/D107R |
| 4.21 | 1/3 | F29R/D31H/S55Y |
| no signal | 0/3 | I51M/S52N/G59P |
| 2.99 | 3/3 | Y32N/I58S/Y108E |
| no signal | 0/3 | Y32M/M34A/I58M |
| 1.28 | 3/3 | S63Q/G103F/F106L |
| no signal | 0/3 | G26E/S52T/W53G |
| 4.92 | 3/3 | G100P/G102C |
| 5.32 | 3/3 | F27I/D62Y/Y105D |
| no signal | 0/3 | G100T/D107Y/Y108R |
| 5.36 | 2/3 | S57P/Y60I/S63C |
| no signal | 0/3 | Y32T/S57R/G100N |
| no signal | 0/3 | G26D/F27I/Y108M |
| 5.81 | 2/3 | S55E/G59P/R101V |
| no signal | 0/3 | V99E/G104W/F106A |
| 3.91 | 3/3 | W53T/I58A/G104K |
| no signal | 0/3 | D30N/A61C/Y105N |
| 3.12 | 3/3 | D30Y/Y60C |
| no signal | 0/3 | W53Q/G100P/Y105Q |
| 0.56 | 3/3 | R101L/G102A/D107V |
| 4.50 | 2/3 | F27I/S52K/I58Y |
| 4.65 | 2/3 | S52H/K65C/Y105L |
| 4.53 | 2/3 | N54T/S55R/D62P |
| no signal | 0/3 | G59H/G100Q/G102Y |
| 5.71 | 2/3 | S55W/A61D/D62C |
| 3.94 | 1/3 | F27G/S57W/Y108A |
| no signal | 0/3 | S57F/Y60V/G103T |
| 4.31 | 2/3 | G50V/K65S/V99Y |
| 4.12 | 1/3 | D31Q/Y32C/G104W |
| no signal | 0/3 | G50A/G59M/D62E |
| 4.48 | 1/3 | Y60H/G100R/G103L |
| no signal | 0/3 | W53V/G56A/K65N |
| 1.33 | 3/3 | D31N/G56V/G102A |
| no signal | 0/3 | G50A/N54R/V64A |
| no signal | 0/3 | Y32L/N54S/D62M |
| no signal | 0/3 | S55H/S63R/D107V |
| no signal | 0/3 | A33E/S55V/V99A |
| 3.17 | 3/3 | D31S/G56I/D107N |
| no signal | 0/3 | H35L/S52H/G59L |
| no signal | 0/3 | G26R/A33C/G103W |
| no signal | 0/3 | I51H/G103Q/D107N |
| no signal | 0/3 | F29H/Y60Q/G100K |
| 4.26 | 1/3 | S52I/V64I/V99R |
| 6.11 | 3/3 | F27I/D62K/G104Y |
| 5.62 | 1/3 | F29I/S55R/K65S |
| 0.83 | 3/3 | M34F/W53Y |
| no signal | 0/3 | F29W/G59S/D107S |
| 5.26 | 3/3 | A33R/I51C |
| 4.59 | 3/3 | A33F/N54S/S57V |
| 2.55 | 3/3 | Y60Q/G102V/Y105C |
| 4.17 | 2/3 | G50A/W53C/K65N |
| 2.00 | 3/3 | D30R/A61K/V99E |
| 1.26 | 3/3 | S57I/I58T/G104W |
| 1.26 | 3/3 | V99M/F106D |
| 3.99 | 3/3 | G56N/K65H/G100M |
| 5.96 | 1/3 | F27E/N54V/D62W |
| 4.84 | 1/3 | G50C/Y60W/K65Y |
| no signal | 0/3 | I51W/S52V/N54D |
| no signal | 0/3 | M34F/I51K/A61F |
| no signal | 0/3 | F29W/D30R/H35P |
| 4.62 | 2/3 | G50D/R101I/Y105R |
| no signal | 0/3 | M34K/K65R/G100C |
| 4.40 | 2/3 | G56L/K65T/G103Q |
| no signal | 0/3 | Y60S/D62N/S63G |
| 4.97 | 1/3 | D31Q/F106C |
| 3.50 | 2/3 | F29Y/D31T/K65V |

10 of these entries, quoted again:

changes	mean, log10 nM	detected
S57I/I58T/G104W	1.26	3/3
G26E/S52T/W53G	no signal	0/3
F29I/S55R/K65S	5.62	1/3
V99E/G104W/F106A	no signal	0/3
A33E/S55V/V99A	no signal	0/3
M34F/W53Y	0.83	3/3
G26Y/Y60F/V99P	no signal	0/3
F27G/S57W/Y108A	3.94	1/3
G50D/R101I/Y105R	4.62	2/3
S63Q/G103F/F106L	1.28	3/3

Three control strains display no target. For library AAYL51, 21% of the pairings with them gave a signal, with a median of 4.54 and one signal in twenty below 3.26, so weak values seen in few replicates may be background.